The record followed here is patent US20260384455A1, “CYCLEN BASED COMPOUNDS AND THEIR GD(III) COMPLEXES FOR USE AS MULTIMODAL PET/MRI CONTRAST AGENTS” (published 2026).

This series in a line: Kinetic inertness by acid-assisted decomplexation in 0.1M HCl at 37 °C. Particulars: for R1p: 0.47 T, 1 mM. On the procedure: FIG. 5: Comparison of kinetic inertness of [Gd(L^4)], [Gd(L^7)] and Magnevist by acid-assisted decomplexation in 0.1M HCl at 37 °C by measurement of relaxation rate on a relaxometer. […] The Rlp value should be the same for all measured complexes after reaching thermodynamic equilibrium but elemental analysis confirmed minor differences in concentrations of the samples (pipetting error) that explain the difference. Data for unchelated GdCl3 solution of the same molar concentration is shown for reference. […] While clinically used Magnevist is decomposed almost immediately (<5 min), [Gd(L^7)] takes longer time to reach complete decomplexation.
The kinetic inertness of [Gd(L^4)] and [Gd(L^7)] was tested using acid-assisted decomplexation with HCl (0.1M). Magnevist®, gadolinium-DTPA (diethylenetriamine penta-acetic acid), a clinically used contrast agent was used as a reference and solution of GdCl3 (1 mM) in HCl (0.1M) was used as an example of fully released gadolinium from chelate. All measured complexes were used as 1 mM solutions with a volume of 150 μL and incubated at 37 °C. During decomplexation, the gadolinium ion detaches from the complex and becomes fully solvated. T1 of the sample decreases during this process since solvated gadolinium shortens T1 relaxation time to a greater degree than chelated gadolinium. The reaction reaches equilibrium when the complex is fully decomposed, and all the gadolinium is solvated. The T1 relaxation time isn't decreasing in this equilibrium state anymore. The T1 relaxation time values were determined on a relaxometer at 37 °C and a field strength of 0.47 T. The kinetic inertness was compared in paramagnetic relaxation rate: R1p=1/T1−1/T1d. The longitudinal relaxation time of the HCl (0.1M) corresponds to T1d. […] Over a 240-minute period, the T1 value of [Gd(L^4)] increased by 12%. Situation is different in the case of Magnevist, where the reaction reaches its equilibrium already after 6 minutes (Table 5). The R1p values of the Magnevist sample didn't change over time, so it can be assumed that the complex fully decomposed.

`O=C(O)CN(CCN(CC(=O)O)CC(=O)O)CCN(CC(=O)O)CC(=O)O.[Gd+3]`: the “time at which decomplexation reaction reaches its equilibrium” value is at most 6 min. Under “6 min”, this molecule gave an R1p of 8.8 s⁻¹. Moreover, the R1p (8 min) was determined as 8.7 s⁻¹. Moreover, the R1p (12 min) is 8.7 s⁻¹. Under “4 h”, this molecule showed an R1p of 8.8 s⁻¹. In addition, the R1p (24 h) turned out to be 8.7 s⁻¹. Where the note is “FIG. 5”, this molecule registered a decomposition time below 5 min.
